Laboratory results as given in BindingDB's records for doi:10.1111/j.1749-6632.1998.tb10185.x (Albany Medical College, 1998).
Several values for one entry are separate records, joined by “and”; a condition that tells them apart may be missing. Equal values may be shown once.

Target: T1, 5-hydroxytryptamine receptor 2C (Rattus norvegicus, UniProt P08909)
T1 sequence (P08909 whole entry): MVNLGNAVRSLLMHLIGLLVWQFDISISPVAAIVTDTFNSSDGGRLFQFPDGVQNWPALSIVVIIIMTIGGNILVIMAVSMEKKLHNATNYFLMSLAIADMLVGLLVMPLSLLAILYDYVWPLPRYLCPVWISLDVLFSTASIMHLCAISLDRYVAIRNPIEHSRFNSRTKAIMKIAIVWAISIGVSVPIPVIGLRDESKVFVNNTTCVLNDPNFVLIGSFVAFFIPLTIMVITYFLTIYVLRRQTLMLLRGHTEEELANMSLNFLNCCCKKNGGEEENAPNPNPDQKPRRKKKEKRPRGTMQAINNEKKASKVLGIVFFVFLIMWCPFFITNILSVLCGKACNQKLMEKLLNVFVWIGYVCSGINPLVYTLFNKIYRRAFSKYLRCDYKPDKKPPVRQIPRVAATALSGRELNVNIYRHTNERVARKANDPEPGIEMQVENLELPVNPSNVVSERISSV

| SMILES | Ki |
| --- | --- |
| COc1cc(CC(C)N)c(OC)cc1Br (stereo not drawn) [2-(4-Bromo-2,5-dimethoxy-phenyl)-1-methyl-ethylamine((-)-DOB)] | 10 nM |
| CN1C[C@@H](NS(=O)(=O)N(C)C)C[C@@H]2c3cccc4c3c(cn4C)C[C@H]21 [MESULERGINE] | 2.7 nM and 0.9 nM |
